From ChEMBL document CHEMBL5506040, “Design of FK866-Based Degraders for Blocking the Nonenzymatic Functions of Nicotinamide Phosphoribosyltransferase” (J Med Chem, 2024)

Protein sequences, listed by entry. Tags and fused reporters are not part of them. Lines headed by an entry give the natural chain unless they say otherwise; changes in a name come on top.
UniProt Q99KQ4: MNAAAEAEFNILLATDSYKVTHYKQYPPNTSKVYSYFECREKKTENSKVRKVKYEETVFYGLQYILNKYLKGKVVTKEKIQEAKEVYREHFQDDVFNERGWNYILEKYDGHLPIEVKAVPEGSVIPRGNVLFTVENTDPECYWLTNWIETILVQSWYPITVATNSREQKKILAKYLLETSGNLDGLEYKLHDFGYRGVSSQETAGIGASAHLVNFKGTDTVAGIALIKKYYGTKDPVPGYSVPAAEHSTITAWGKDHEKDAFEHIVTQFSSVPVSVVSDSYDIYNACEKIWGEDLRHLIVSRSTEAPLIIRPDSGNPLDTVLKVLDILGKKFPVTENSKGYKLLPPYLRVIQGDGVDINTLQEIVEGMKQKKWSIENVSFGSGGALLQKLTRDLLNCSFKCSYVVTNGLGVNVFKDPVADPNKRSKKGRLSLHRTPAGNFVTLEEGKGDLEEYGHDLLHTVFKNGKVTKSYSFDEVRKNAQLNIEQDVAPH
UniProt P40338, whole entry, looked up: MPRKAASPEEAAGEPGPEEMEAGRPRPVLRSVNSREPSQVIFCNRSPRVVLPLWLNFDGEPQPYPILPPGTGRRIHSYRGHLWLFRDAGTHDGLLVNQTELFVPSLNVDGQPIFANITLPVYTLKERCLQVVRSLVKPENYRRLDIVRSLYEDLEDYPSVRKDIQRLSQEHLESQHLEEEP

Columns and labels:
Assay type in all cases: cell-based
[1] = target: T1, von Hippel-Lindau disease tumor suppressor/Nicotinamide phosphoribosyltransferase (Mus musculus) (UniProt Q99KQ4+P40338); test: PROTAC activity at VHL/NAMPT in mouse CT26 cells assessed as induction of intracellular NAMPT degradation by measuring fold change at 5 uM incubated for 2 hrs by Western blot analysis
[2] = target: T1, von Hippel-Lindau disease tumor suppressor/Nicotinamide phosphoribosyltransferase (Mus musculus); test: PROTAC activity at VHL/NAMPT in mouse CT26 cells assessed as induction of intracellular NAMPT degradation by measuring fold change at 0.1 uM incubated for 24 hrs by Western blot analysis
[3] = target: T1, von Hippel-Lindau disease tumor suppressor/Nicotinamide phosphoribosyltransferase (Mus musculus); test: PROTAC activity at VHL/NAMPT in mouse CT26 cells assessed as induction of intracellular NAMPT degradation by measuring fold change at 0.5 uM incubated for 24 hrs by Western blot analysis
[4] = target: T1, von Hippel-Lindau disease tumor suppressor/Nicotinamide phosphoribosyltransferase (Mus musculus); test: PROTAC activity at VHL/NAMPT in mouse CT26 cells assessed as induction of intracellular NAMPT degradation by measuring fold change at 1 uM incubated for 24 hrs by Western blot analysis
[5] = target: T1, von Hippel-Lindau disease tumor suppressor/Nicotinamide phosphoribosyltransferase (Mus musculus); test: PROTAC activity at VHL/NAMPT in mouse CT26 cells assessed as induction of intracellular NAMPT degradation by measuring fold change at 5 uM incubated for 24 hrs by Western blot analysis
[6] = target: T1, von Hippel-Lindau disease tumor suppressor/Nicotinamide phosphoribosyltransferase (Mus musculus); test: PROTAC activity at VHL/NAMPT in mouse CT26 cells assessed as induction of intracellular NAMPT degradation by measuring fold change at 5 uM incubated for 6 hrs by Western blot analysis
[7] = target: T1, von Hippel-Lindau disease tumor suppressor/Nicotinamide phosphoribosyltransferase (Mus musculus); test: PROTAC activity at VHL/NAMPT in mouse CT26 cells assessed as induction of intracellular NAMPT degradation by measuring fold change at 5 uM incubated for 12 hrs by Western blot analysis

fold change (FC) [1]: 1.12 | fold change (FC) [2]: 0.95 | fold change (FC) [3]: 0.77 | fold change (FC) [4]: 0.46 | fold change (FC) [5]: 0.16 | fold change (FC) [6]: 0.72 | fold change (FC) [7]: 0.48
Structure (SMILES): Cc1ncsc1-c1ccc([C@H](C)NC(=O)[C@@H]2C[C@@H](O)CN2C(=O)[C@@H](NC(=O)COCCOCCOCCOCCNC(=O)c2ccc(C(=O)N3CCC(CCCCNC(=O)/C=C/c4cccnc4)CC3)cc2)C(C)(C)C)cc1
